Yeast UUG start – modulators of yeast start codon fidelity, primary screen, whole organism, S. cerevisiae, single point, plate reader. S. cerevisiae UUG-firefly luciferase reporter, luminescence/redox ratio. activity score, % at 18.7 µM. 350,000 tested, 0.13% active;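 active = replicate mean at a twofold rise or more, about +100% in these data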;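 also: firefly luciferase made from a UUG start codon reports start codon fidelity; reporter light over untreated wells divided by growth signal over untreated wells; some hits fall short of that in this replicate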
dFosB act-1 – activators of delta FosB homodimer, primary screen, biochemical, fluorescence polarization, TAMRA-CDK5 oligo, single point. activation, % at 25 µM. purified delta FosB; percent of positive-control signal above neutral wells. AID 493131, 2011. Protein FosB (Mus musculus), P13346. actives 0.99% (n = 340,000);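 active = mean activation above about 17%, with every replicate also reaching it, limit read from the data, passing the limit was not always enough; inconclusive = only one of the two conditions met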
CDK5 inh – inhibitors of human CDK5/p35 kinase, primary screen, biochemical, single concentration; inhibition, % at 10 µM; actives 0.01% (n = 330,000); Recombinant CDK5/p35, ADP-Glo luminescence, 60 min; Cyclin-dependent kinase 5 (Homo sapiens) + Cyclin-dependent kinase 5 activator 1 (Homo …; AID 488839, 2010;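 active = highest replicate inhibition of at least 50% and at least 75% of replicates reaching 50%; inconclusive = only one of the two criteria met; inactive = both criteria failed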
CAL PDZ FP-1 – untagged CAL PDZ binding inhibitors, primary screen, biochemical, fluorescence polarization, HTS; inhibition, % at 24.9 µM; AID 602252, 2012; actives 0.92% (n = 300,000); purified CAL PDZ, TMR-peptide fluorescence polarization, 1 h;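 active = mean inhibition of at least 30% with at least half of replicates also reaching 30%; inconclusive = no clear call, values can overlap the other calls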
DYRK1A inh – rat Dyrk1A kinase inhibitors, primary screen, biochemical, single point, plate reader | actives 0.43% (n = 310,000) | inhibition, % at 12.5 µM | ADP-Glo luminescence, NFATc1 peptide | AID 504441, 2011; in the data active = inhibition above about 50%
CAL PDZ FP-2 – CAL PDZ peptide-binding inhibitors, primary screen, biochemical, fluorescence polarization, Cer-tagged CAL PDZ, HTS; purified CAL PDZ, TMR-peptide fluorescence polarization, 1 h; inhibition, % at 20 µM; actives 0.02% (n = 330,000); AID 504414, 2011;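 active = highest replicate inhibition of at least 40%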
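Material – purified CerCALP PDZ construct · Detection – FP readout, S and P plane fluorescence · Measure – percent inhibition from loss of millipolarization · Controls – unlabelled peptide for full inhibition, DMSO wells as neutral · Probe or stimulus – TMR-labelled reporter peptide T*-PRC34 bound in PDZ groove · Times – 1 h at RT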
dFosB act-2 – activators of mouse delta FosB DNA binding, confirmation, biochemical, fluorescence polarization, TAMRA-CDK5 oligo, cherry-picked samples | shares compounds with dFosB act-1 | purified delta FosB; normalised: neutral wells 0, positive control 100 | activation, % at 24.9 µM | 2,400 tested, under 10 active | AID 588690, 2011;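 active = highest replicate activation at or above 34% and every replicate reaching that threshold; inconclusive = meets only one of the two criteria; inactive = meets neither criterion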;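 note: higher polarization means more probe DNA bound by delta FosB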
Hits are given with their value; i = inactive; ? = inconclusive; nt = not tested or not shown. This is a sample that favours compounds with a hit; in the whole collection about 1.7% have one here.

SMILES | Yeast UUG start | dFosB act-1 | CDK5 inh | CAL PDZ FP-1 | DYRK1A inh | CAL PDZ FP-2 | dFosB act-2
COC(=O)c1cccc(NC(=O)c2ccco2)c1 | i | i | i | i | i | i | nt
O=C(Nc1cccc(NC(=O)c2ccco2)c1)c1ccc([N+](=O)[O-])cc1 | nt | 20 | i | i | i | i | i
O=C(CSc1n[nH]c(-c2ccco2)n1)Nc1sc2c(c1C(=O)Nc1ccccc1)CCCC2 | i | 25 | i | i | i | nt | i
CNC(=O)C[C@@H]1CC[C@H]2[C@H](COc3ccc(NC(=O)Nc4ccccc4OC)cc3C(=O)N2C)O1 | i | nt | nt | nt | nt | nt | nt
O=C(Nc1ccccc1)c1cnc(-c2ccccc2)nc1-c1ccccc1 | i | 48 | i | i | i | i | i
Cc1nn(Cc2c(Cl)cccc2Cl)c(C)c1NC(=O)c1sc2ccccc2c1Cl | i | 40 | i | i | i | i | i
CN(CC(=O)Nc1c(Cl)cccc1Cl)C(=O)CNC(=O)c1sc2ccccc2c1Cl | i | 35 | i | i | i | i | i
Cc1ccc(Nc2nc(N)c3ccccc3n2)cc1C | i | 42 | i | nt | i | i | i
Cc1cc(Nc2ccc(C)c(C)c2)c2ccccc2n1 | i | i | i | i | i | i | nt
CO[C@@H]1CN(C)C(=O)c2ccc(NC(=O)Nc3cccc(Cl)c3)cc2OC[C@H](C)N(C(=O)Nc2c(C)noc2C)C[C@@H]1C | i | nt | nt | nt | nt | nt | nt
O=C(Nc1ccc(Cl)cc1)NN1CC(=O)N(c2cccc(C(F)(F)F)c2)CC1=O | nt | 31 | i | i | i | i | i
Cc1ccc(N2CC(=O)N(NC(=O)Nc3ccc(Cl)c(Cl)c3)CC2=O)cc1 | nt | ? | i | i | i | i | nt
CN(C(=O)COC(=O)/C=C/c1ccc2ccccc2n1)c1c(N)n(Cc2ccccc2)c(=O)[nH]c1=O | i | 23 | i | i | i | i | i
CC(C)CN(C(=O)COC(=O)/C=C/c1cccs1)c1c(N)n(Cc2ccccc2)c(=O)[nH]c1=O | nt | 34 | i | i | i | i | i
CC(C)CN(C(=O)COC(=O)Cc1ccc(Cl)cc1)c1c(N)n(Cc2ccccc2)c(=O)[nH]c1=O | i | i | i | i | i | i | nt
CC(C)CN(C(=O)COC(=O)CSc1ccccc1)c1c(N)n(Cc2ccccc2)c(=O)[nH]c1=O | i | 29 | i | i | i | i | i
CC(C)CN(C(=O)CSc1nnnn1-c1ccccc1)c1c(N)n(CC(C)C)c(=O)[nH]c1=O | nt | 38 | i | i | i | i | i
O=C(C[C@@H]1C=C[C@H](NC(=O)c2cccc(F)c2)[C@@H](CO)O1)NCc1ccc(Oc2ccccc2)cc1 | i | nt | nt | nt | nt | nt | nt
CC(=O)N(C)C[C@H]1Oc2cc(-c3ccccc3C)ccc2S(=O)(=O)N([C@@H](C)CO)C[C@H]1C | i | nt | nt | nt | nt | nt | nt
COc1cccc(C(=O)Nc2ccc3c(c2)C(=O)N(C)C[C@H](OC)[C@H](C)CN(C(=O)C2CCCC2)[C@@H](C)CO3)c1 | i | nt | nt | nt | nt | nt | nt
O=C(Cc1ccncc1)Nc1ccc2c(c1)[C@@H]1C[C@@H](CC(=O)NC3CCCC3)O[C@H](CO)[C@@H]1O2 | i | nt | nt | nt | nt | nt | nt
CC(=O)c1cn(CC(=O)Nc2cccc(C)c2C)c2ccccc12 | i | i | i | i | i | i | nt
Cc1ccc(NC(=O)Cn2cc(C(=O)C3CC3)c3ccccc32)c(C)c1 | i | i | i | i | i | i | nt
CCC(=O)c1cn(CC(=O)Nc2cccc(C)c2C)c2ccccc12 | i | 25 | i | i | i | i | i
Cc1ccc(C)c(NC(=O)Cn2cc(C(=O)C3CC3)c3ccccc32)c1 | i | 72 | i | i | i | i | i
SMILES | Yeast UUG start | dFosB act-1 | CDK5 inh | CAL PDZ FP-1 | DYRK1A inh | CAL PDZ FP-2 | dFosB act-2
Cc1cccc(NC(=O)Cn2cc(C(=O)C3CC3)c3ccccc32)c1C | i | 21 | i | i | i | i | i
CC(=O)c1cn(CC(=O)Nc2ccc(C)cc2C)c2ccccc12 | i | 28 | i | i | i | i | i
CO[C@H]1CN(C)C(=O)c2cc(NC(=O)Nc3cccc(Cl)c3)ccc2OC[C@@H](C)N(C)C[C@@H]1C | i | nt | nt | nt | nt | nt | nt
O=C(Nc1nccs1)c1cc(-c2ccccn2)nc2c(Cl)cccc12 | i | 39 | i | i | i | i | i
Cc1cc(NC(=O)c2cc(-c3ccccn3)nc3c(Cl)cccc23)no1 | i | i | i | i | i | i | nt
NS(=O)(=O)c1ccc(CCNC(=O)c2ccc(NC3=NC4CS(=O)(=O)CC4S3)cc2)cc1 (configuration not stated) | i | 18 | i | i | i | i | i
Cc1ccc(CCNC(=O)c2ccc(NC3=NC4CS(=O)(=O)CC4S3)cc2)cc1 (configuration not stated) | i | i | i | i | i | i | nt
C[C@H](CO)N1C[C@H](C)[C@@H](CN(C)C(=O)CCC(F)(F)F)OCCCC[C@H](C)Oc2ccc(NC(=O)Cc3ccccc3)cc2C1=O | i | nt | nt | nt | nt | nt | nt
Cc1oc2cc(O)ccc2c(=O)c1Oc1ccc2ccccc2c1 | i | i | i | i | i | i | nt
Cc1oc2cc(O)ccc2c(=O)c1Oc1ccc(F)cc1 | i | 19 | i | i | i | i | i
O=C(C[C@@H]1CC[C@H](NS(=O)(=O)c2ccccc2F)[C@H](CO)O1)NCCCN1CCOCC1 | i | nt | nt | nt | nt | nt | nt
CN1CCN(c2ccc(-c3cccc(NC(=O)COc4ccc(Cl)cc4Cl)c3)nn2)CC1 | nt | 28 | i | i | i | i | i
CN1CCN(c2ccc(-c3cccc(NC(=O)COc4ccc(Cl)cc4)c3)nn2)CC1 | i | i | i | i | i | i | nt
Cc1ccc(-c2n[nH]c(=S)n2/N=C/C=C/c2ccccc2[N+](=O)[O-])cc1 | i | i | i | i | i | i | nt
S=c1[nH]nc(-c2cc(-c3ccccc3)n[nH]2)n1/N=C/C=C/c1ccccc1 | i | 41 | i | i | i | i | i
O=[N+]([O-])c1ccccc1/C=C/C=N/n1c(-c2cc(-c3ccccc3)n[nH]2)n[nH]c1=S | nt | 54 | i | i | nt | i | i
S=c1[nH]nc(-c2cc(-c3ccccc3)n[nH]2)n1/N=C/c1ccccc1 | i | i | i | i | i | i | nt
O=C([C@H]1[C@H](CO)[C@H]2Cn3c(cccc3=O)[C@H]2N1CC1CC1)N1CCc2ccccc2C1 | i | nt | nt | nt | nt | nt | nt
